Values quoted from earlier work, collected in patent EP0325010B1, “Non-digestible fat substitutes of low-caloric value” (ARCO Chemical Technology, L.P., priority 1988, dated 1989).

Conditions: rat, in vivo

In the case of Distearin adipate, the digested is given as “almost completely non-digested”.
